Experimental data reported in patent publication US20100062067A1, “COMPOSITIONS COMPRISING MACROMOLECULAR ASSEMBLIES OF LIPID AND SURFACTANT” (MALVERN COSMECEUTICS LIMITED, priority 2006, published 2010).

Experiment: Clarity and turbidity of surfactant/active agent mixtures in water (Comparative Example 2)
Assay type: physicochemical

- Ability to solubilise TECA: none
Substance: Lyso-phosphatidyl choline [S LPC]
